{"source": "paper PMC5170609", "about": "(Molecular Biology of the Cell, 2016)", "target": "wild-type full-length desmin (recombinant) (UniProt P17661 1-470)", "assay": "ELISA"}
{"binder": "His-nebulette amino terminal end through module 6 (recombinant) (domain or fragment) MRVPVFEDIKDETEEEKIGEEENEEDQVFYKPVIEDLSMELARKCTELISDIRYKEEFKKSKDKCTFVTDSPMLNHVKNIGAFISEAKYKGTIKADLSNSLYKRMPATIDSVFAGEVTQLQSEVAYKQKHDAAKGFSDYAHMKEPPEVKHAMEVNKHQSNISYRKDVQDTHTYSAELDRPDIKMATQISKIISNAEYKKGQGIMNKEPAVIGRPDFEHAVEASKLSSQIKYKEKFDNEMK", "values": [{"measurement": "Kd", "result": "12 to 19", "unit": "nM"}]}
